Earlier results as cited in PMC10818746, “Inhibition of CYP1A1 Alleviates Colchicine-Induced Hepatotoxicity” (Toxins, 2024).

How the values were obtained:
liver [1] = conditions: clinical case; cited from earlier work
liver [2] = conditions: cited from earlier work

COc1cc2c(c(OC)c1OC)-c1ccc(OC)c(=O)cc1[C@@H](NC(C)=O)CC2 [colchicine, Colchicine]
large doses at which liver damage occurred (case report) (liver [1]): > 0.5 mg/kg
high dose that can cause liver damage in mice (liver [2]): 4 mg/kg
